Laboratory results taken from patent publication US20220313694A1, “REDUCED CALORIC INTAKE AND ANTICANCER AGENTS FOR THE TREATMENT OF CANCER” (IFOM FONDAZIONE ISTITUTO FIRC DI ONCOLOGIA MOLECOLARE, priority 2021, published 2022).

How the values were obtained:
[1] = test system: SUM159 cells; test: In vitro sphere forming assay, SUM159 cells under CTR/STS; assay type: cell-based, human; conditions: STS (0.5 g/l glucose, 1% FBS), 48 h; agent added (8-Br-cAMP 0.5 mM; glucose 1 g/l; FBS 10%, IGF-1 250 ng/ml, EGF 200 ng/ml, insulin 200 ng/ml; rapamycin 10 μM, pictilisib 10 μM, ipatasertib 20 μM)
[2] = test system: SUM159 cells

Row | Compound | in vitro sphere / mammosphere formation [1] | cancer cell death ([2]; CTR conditions (1 g/L glucose; 10% FBS), drug for 24 hours) | cancer cell death ([2]; STS conditions, drugs for 24 hours (rapamycin 10 μM, pictilisib 10 μM, ipatasertib 20 μM))
1 | Nc1ncnc2c1nc(Br)n2[C@@H]1O[C@@H]2COP(=O)(O)O[C@H]2[C@H]1O [8-Br-cAMP, 8-Bromoadenosine 3′,5′-cyclic mono-phosphate] | reversed fasting/STS-dependent spheres reduction | – | –
2 | CS(=O)(=O)N1CCN(Cc2cc3nc(-c4cccc5[nH]ncc45)nc(N4CCOCC4)c3s2)CC1 [pictilisib] | – | seems to not have any effect under CTR conditions | the most efficacious in inducing cancer cell death under STS conditions
3 | insulin: FBS component, 200 ng/ml | did not have an effect on mammospheres growth | – | –
4 | OC[C@H]1OC(O)[C@H](O)[C@@H](O)[C@@H]1O (stereo partly shown) [glucose] | almost entirely rescued | – | –
5 | EGF: FBS component, epidermal growth factor, 200 ng/ml (NSDSECPLSHDGYCLHDGVCMYIEALDKYACNCVVGYIGERCQYRDLKWWELR; Epidermal growth factor; UniProt P01133 971-1023, looked up) | did not have an effect on mammospheres growth | – | –
6 | IGF1: FBS component, insulin growth factor 1, 250 ng/ml | did not have an effect on mammospheres growth | – | –

Where two headings read alike, the source gives them in different places.
